Results on 1 compound are retold here after PubChem BioAssay AID1326 (NMMLSC, 2008).

Sequences of proteins named here, by UniProt entry; tags and fusion partners are left off.
UniProt P08183, whole entry: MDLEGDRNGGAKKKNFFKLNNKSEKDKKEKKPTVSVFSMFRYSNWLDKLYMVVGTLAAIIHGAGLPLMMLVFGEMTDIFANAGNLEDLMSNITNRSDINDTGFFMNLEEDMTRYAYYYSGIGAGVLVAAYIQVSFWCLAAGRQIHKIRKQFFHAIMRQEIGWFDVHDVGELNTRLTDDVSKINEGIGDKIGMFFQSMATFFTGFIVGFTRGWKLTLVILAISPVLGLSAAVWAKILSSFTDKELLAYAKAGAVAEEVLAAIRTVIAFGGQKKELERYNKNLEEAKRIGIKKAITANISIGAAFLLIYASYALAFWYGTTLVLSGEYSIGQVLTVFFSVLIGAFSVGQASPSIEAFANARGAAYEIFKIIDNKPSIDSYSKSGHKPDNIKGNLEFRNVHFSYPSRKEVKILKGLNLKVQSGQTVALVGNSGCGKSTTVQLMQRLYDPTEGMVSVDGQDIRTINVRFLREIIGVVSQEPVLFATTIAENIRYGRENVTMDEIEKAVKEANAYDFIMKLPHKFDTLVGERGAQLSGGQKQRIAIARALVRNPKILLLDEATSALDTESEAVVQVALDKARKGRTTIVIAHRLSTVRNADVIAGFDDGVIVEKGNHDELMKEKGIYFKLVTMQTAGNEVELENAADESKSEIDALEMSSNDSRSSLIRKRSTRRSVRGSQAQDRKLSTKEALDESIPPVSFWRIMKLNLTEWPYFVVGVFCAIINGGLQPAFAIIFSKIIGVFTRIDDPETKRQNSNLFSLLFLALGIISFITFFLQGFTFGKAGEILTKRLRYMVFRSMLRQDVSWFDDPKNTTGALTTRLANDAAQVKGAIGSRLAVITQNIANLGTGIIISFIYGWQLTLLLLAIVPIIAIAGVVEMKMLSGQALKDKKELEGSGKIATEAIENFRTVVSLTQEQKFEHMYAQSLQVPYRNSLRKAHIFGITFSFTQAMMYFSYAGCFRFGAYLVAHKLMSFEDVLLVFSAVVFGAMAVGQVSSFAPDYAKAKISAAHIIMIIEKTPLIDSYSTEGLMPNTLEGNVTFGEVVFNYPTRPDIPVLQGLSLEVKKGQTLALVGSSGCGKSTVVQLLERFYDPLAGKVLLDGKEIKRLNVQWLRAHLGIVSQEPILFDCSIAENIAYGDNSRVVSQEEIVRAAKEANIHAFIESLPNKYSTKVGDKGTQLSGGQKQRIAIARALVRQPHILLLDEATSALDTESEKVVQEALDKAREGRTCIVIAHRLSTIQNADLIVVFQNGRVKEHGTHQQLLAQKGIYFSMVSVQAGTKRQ

This is a selection; strong and weak results do not stand in their true shares. Active and inactive are the calls of the source. Rule as the data show it: active = inhibition above about 40%; inactive = the rest.

The target of this experiment is ATP-dependent translocase ABCB1 (Homo sapiens) (UniProt P08183). The experiment in a line: blockers of ABCB1-mediated dye efflux – cell-based, multiplex, flow cytometry, ABCG2 counter-screen, primary screen (AID 1326).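 Also: 0% = vehicle and 100% = reference inhibitor; higher value means more JC-1 retained so stronger ABCB1 efflux block.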 The conditions noted are these: CCRF-Adr cells, JC-1 efflux, at 6.6 µM, stronger effect = higher value. (In flow cytometry, cells or beads pass a laser one at a time.)
Usually inhibition stands for the relative decrease from the control value, in per cent. Consider `Cc1cc(C)cc(OP(C)(N)=O)c1` (stereo unspecified), for which the inhibition was inactive: 1.85%.
